The whole screen tested about 16,000 compounds, of which about 160 (1%) were called active. Listed are the inconclusive results; actives and inactives stand elsewhere. Calls follow the shape of the dose curve; as a rule, active = well fitted activation curve with a large enough effect; inconclusive = small, poorly fitted or top-dose-only effect; inactive = no such curve, though single readings can be large or run the other way.
target: Rap guanine nucleotide exchange factor 3 (Homo sapiens) (UniProt O95398); test: Validation qHTS for agonist of cAMP-regulated guanine nucleotide exchange factor 3 (EPAC1); settings: EPAC1 Rap1b BODIPY-GDP exchange, fluorescence; also: nearly all actives have a fitted effect of over 70% in size
Description: Assay Provider (PI): Xiaodong Cheng Ph.D.
The University of Texas Medical Branch, […], TX
In multi-cellular eukaryotic organisms, the effects of cAMP are transduced by two ubiquitously-expressed intracellular cAMP receptors, the classic protein kinase A/cAMP-dependent protein kinase (PKA/cAPK) and the more recently discovered exchange protein directly activated by cAMP/cAMP-regulated guanine nucleotide exchange factor (EPAC/cAMP-GEF). Both PKA and EPAC are ubiquitously expressed in all tissues, and an increase in intracellular cAMP levels will lead to the activation of both PKA and EPAC. […]
This qHTS will be used to screen the Molecular Libraries Small Molecule Repository (MLSMR) as a concentration-titration series using the NCGC unique quantitative screening (qHTS) platform to find activators for EPAC1. […] Activators are identified by monitoring the change in fluorescence signal as the exchanged free BODIPY-GDP has a reduced fluorescence compared to Rap1-bound BODIPY-GDP. […]
Briefly, three uL of reagents (100 nM EPAC1, 250 nM RAP1B-BODIPY-GDP, 50 uM GDP) were dispensed into a 1536-well Greiner black solid-bottom medium binding assay plate. […] The assay plates were read at 5 minute intervals for 30 minutes in the ViewLux plate reader using 480nm excitation and 540nm emission filters. […]
Potency is read from the fitted curve at half-maximal effect.

The chains behind the UniProt entries cited, without tags or fusion partners. Where a name states a change or a piece, a line headed by the entry shows the natural chain unless it says otherwise.
UniProt O95398: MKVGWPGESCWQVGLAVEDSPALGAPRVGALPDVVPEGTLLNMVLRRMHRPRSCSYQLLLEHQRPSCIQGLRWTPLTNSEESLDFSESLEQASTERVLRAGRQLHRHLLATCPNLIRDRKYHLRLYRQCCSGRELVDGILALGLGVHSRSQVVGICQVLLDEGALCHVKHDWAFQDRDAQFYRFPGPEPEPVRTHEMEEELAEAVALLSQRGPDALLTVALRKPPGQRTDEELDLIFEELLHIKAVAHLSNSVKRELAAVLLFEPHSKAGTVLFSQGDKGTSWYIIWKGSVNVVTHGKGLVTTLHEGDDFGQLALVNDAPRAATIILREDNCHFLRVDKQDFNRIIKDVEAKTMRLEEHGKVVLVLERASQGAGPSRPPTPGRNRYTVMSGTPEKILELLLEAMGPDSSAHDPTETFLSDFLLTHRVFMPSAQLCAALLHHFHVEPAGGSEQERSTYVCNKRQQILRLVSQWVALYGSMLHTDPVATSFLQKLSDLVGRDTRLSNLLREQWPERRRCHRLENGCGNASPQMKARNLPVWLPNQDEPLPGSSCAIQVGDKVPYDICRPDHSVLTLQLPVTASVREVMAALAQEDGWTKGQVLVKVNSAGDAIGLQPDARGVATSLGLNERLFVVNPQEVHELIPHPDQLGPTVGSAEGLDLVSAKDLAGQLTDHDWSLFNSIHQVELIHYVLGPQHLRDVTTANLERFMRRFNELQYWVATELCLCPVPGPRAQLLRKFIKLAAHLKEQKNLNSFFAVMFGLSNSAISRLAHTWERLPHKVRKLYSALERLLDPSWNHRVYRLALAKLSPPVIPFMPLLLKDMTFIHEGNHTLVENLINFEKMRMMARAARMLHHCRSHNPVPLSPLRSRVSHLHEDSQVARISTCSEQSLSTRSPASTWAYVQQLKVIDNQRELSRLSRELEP

Compound	Potency
COc1cccc([N+](=O)[O-])c1[N+](=O)[O-]	inconclusive: 100 µM

Source: PubChem BioAssay AID1645883 (National Center for Advancing Translational Sciences (NCATS), 2021)
